Source: patent US7723329B2, “Substituted-3-sulfonylindazole derivatives as 5-hydroxytryptamine-6 ligands” (Wyeth LLC, priority 2005, dated 2010)

Protein sequences, listed by entry. Tags and fused reporters are not part of them.
UniProt P50406, whole entry: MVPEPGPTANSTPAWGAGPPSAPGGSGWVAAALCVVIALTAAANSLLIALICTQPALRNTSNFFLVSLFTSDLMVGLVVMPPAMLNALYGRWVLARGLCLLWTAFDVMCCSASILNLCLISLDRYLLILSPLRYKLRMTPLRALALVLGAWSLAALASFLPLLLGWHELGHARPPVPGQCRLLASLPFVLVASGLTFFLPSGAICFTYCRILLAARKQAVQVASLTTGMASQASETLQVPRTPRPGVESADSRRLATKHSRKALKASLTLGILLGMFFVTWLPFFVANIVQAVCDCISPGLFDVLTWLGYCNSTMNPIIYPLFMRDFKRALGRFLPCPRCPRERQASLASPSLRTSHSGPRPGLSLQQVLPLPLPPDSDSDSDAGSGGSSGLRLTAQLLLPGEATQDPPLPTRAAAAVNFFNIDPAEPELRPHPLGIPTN

Target: human cloned 5-HT6 receptors (Homo sapiens, UniProt P50406)
Assay: 5-HT6 binding affinity, [3H]-LSD displacement
Conditions: read-out: 5-HT6 Binding Ki; membranes of Hela cells expressing human cloned 5-HT6 receptors; [3H]-LSD 3.0 nM; 120 minutes at room temperature; tested form: HCl

SMILES | Ki [nM]
CCNCCOc1cccc2c(S(=O)(=O)c3cccc4ccccc34)nn(Cc3cccc(Cl)c3)c12 | 11 to 25
CCN(CC)CCOc1cccc2c(S(=O)(=O)c3cccc4ccccc34)nn(Cc3cccc(Cl)c3)c12 | 36 to 45
O=S(=O)(c1cccc2ccccc12)c1nn(Cc2cccc(Cl)c2)c2c(OCCN3CCCCC3)cccc12 | 0.01 to 10
CCCCNCCOc1cccc2c(S(=O)(=O)c3cccc4ccccc34)nn(Cc3cccc(Cl)c3)c12 | > 45
O=S(=O)(c1cccc2ccccc12)c1nn(Cc2cccc(Cl)c2)c2c(OCCN3CCCC3)cccc12 | 11 to 25
